# Laboratory results: patent US20080288176A1 (priority 2005, published 2008)
# Key:
# [1] = tested on: cardiac tissue prostacyclin (PGI2) to thromboxane A2 (TXB2) ratio; assay: Cardiac tissue prostacyclin to thromboxane ratio; assay type: in vivo, rat; conditions: male Wistar rats
# Text: (§1) Myocardial infarction and ischemic events in high risk patients led one of the most popular COX-2 inhibitors to its demise (Bresalier et al., 2005). Non-selective NSAIDS may also cause similar problems due to their ability to inhibit COX-2. It has been postulated that a shift in the ratio of PGI2 to thromboxane A2 during NSAID treatment would provide early indications of atherogenicity (Krötz et al., 2005). Adenosine diphosphate (ADP) generation is an indicator of myocardial infarction which has no connection with the arachidonic acid cascade (Borna et al., 2005). […] Long term NSAID use has been linked to kidney damage and hypertension (Zafirovska et al., 1993). […] This was associated with an increase in the urine the ratio of alanine-amino-peptidase (AAP) and creatinine.
# (§2) Table 1 is a summary of the protocol for a study which was conducted in male Wistar rats weighing 275-300 grams. The animals were allowed to acclimatize for at least five days prior to the commencement of the study. The study protocol was approved by the local animal ethics committee.
# All rats were euthanized by removal of the heart 6 hours after initial dosing, following final blood collections. Immediately after terminal blood collections were complete, the thorax was opened and the heart removed. The heart was cut in half longitudinally. Half of the heart was placed in formalin for histological examination. […]
# male Wistar rats = assay: Urine alanine aminopeptidase to creatinine ratio (proximal tubular kidney damage); assay type: in vivo, rat
# Text: as §1, §2
# All test animals, housed in metabolic cages, had urine collected over wet ice for 6 hours after dosing. Aliquots of the urine from each animal were collected to determine creatinine concentration. The remainder of the urine was centrifuged at 1000 g for 10 minutes. […]
compound,measurement,setting,value
"COc1ccc2cc([C@H](C)C(=O)O)ccc2c1 [NAP, naproxen]",PGI2/TXA2 ratio comparison (in words),[1],insignificant change
same,Urine AAP/creatinine ratio change (in words),male Wistar rats,no significant increase
